In patent US20090326001A1, “THIENOPYRIDINE DERIVATIVES AS MODULATORS OF METABOTROPIC GLUTAMATE RECEPTORS” (priority 2005, published 2009):
pKi: −log10 of the molar value.

Amino acid sequences for entries named in this document (tags omitted). Residues count along the entry.
UniProt P31424, whole entry: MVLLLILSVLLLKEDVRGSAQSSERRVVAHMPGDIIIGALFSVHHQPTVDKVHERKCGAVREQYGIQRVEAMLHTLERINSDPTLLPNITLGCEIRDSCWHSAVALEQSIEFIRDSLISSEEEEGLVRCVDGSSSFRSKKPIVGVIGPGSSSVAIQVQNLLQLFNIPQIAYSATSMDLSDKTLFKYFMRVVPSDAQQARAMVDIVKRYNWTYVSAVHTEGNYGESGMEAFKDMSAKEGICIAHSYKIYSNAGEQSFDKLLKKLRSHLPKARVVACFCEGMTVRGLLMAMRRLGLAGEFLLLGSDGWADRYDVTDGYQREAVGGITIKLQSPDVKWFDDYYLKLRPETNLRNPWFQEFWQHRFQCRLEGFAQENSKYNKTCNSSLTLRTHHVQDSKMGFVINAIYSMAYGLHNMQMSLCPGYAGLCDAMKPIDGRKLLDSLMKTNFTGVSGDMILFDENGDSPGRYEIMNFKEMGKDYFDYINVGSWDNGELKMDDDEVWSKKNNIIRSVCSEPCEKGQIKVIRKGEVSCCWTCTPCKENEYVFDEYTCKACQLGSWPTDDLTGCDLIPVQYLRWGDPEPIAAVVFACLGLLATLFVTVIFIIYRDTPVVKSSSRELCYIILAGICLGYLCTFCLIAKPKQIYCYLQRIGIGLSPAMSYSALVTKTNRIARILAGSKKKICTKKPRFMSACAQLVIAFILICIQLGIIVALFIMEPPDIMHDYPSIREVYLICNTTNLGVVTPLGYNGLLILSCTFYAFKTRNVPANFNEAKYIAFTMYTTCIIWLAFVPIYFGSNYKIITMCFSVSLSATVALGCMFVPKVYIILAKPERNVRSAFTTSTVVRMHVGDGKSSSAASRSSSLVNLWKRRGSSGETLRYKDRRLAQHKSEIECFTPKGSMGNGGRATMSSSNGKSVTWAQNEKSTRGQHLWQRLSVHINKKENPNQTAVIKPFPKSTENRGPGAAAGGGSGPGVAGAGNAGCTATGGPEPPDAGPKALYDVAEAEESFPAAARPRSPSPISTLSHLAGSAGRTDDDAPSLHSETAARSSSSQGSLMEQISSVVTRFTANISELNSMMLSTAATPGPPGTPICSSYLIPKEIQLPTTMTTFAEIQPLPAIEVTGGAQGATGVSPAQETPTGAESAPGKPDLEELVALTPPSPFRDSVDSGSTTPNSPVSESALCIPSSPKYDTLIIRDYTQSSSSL
UniProt P23385, 19-1199 limits assumed: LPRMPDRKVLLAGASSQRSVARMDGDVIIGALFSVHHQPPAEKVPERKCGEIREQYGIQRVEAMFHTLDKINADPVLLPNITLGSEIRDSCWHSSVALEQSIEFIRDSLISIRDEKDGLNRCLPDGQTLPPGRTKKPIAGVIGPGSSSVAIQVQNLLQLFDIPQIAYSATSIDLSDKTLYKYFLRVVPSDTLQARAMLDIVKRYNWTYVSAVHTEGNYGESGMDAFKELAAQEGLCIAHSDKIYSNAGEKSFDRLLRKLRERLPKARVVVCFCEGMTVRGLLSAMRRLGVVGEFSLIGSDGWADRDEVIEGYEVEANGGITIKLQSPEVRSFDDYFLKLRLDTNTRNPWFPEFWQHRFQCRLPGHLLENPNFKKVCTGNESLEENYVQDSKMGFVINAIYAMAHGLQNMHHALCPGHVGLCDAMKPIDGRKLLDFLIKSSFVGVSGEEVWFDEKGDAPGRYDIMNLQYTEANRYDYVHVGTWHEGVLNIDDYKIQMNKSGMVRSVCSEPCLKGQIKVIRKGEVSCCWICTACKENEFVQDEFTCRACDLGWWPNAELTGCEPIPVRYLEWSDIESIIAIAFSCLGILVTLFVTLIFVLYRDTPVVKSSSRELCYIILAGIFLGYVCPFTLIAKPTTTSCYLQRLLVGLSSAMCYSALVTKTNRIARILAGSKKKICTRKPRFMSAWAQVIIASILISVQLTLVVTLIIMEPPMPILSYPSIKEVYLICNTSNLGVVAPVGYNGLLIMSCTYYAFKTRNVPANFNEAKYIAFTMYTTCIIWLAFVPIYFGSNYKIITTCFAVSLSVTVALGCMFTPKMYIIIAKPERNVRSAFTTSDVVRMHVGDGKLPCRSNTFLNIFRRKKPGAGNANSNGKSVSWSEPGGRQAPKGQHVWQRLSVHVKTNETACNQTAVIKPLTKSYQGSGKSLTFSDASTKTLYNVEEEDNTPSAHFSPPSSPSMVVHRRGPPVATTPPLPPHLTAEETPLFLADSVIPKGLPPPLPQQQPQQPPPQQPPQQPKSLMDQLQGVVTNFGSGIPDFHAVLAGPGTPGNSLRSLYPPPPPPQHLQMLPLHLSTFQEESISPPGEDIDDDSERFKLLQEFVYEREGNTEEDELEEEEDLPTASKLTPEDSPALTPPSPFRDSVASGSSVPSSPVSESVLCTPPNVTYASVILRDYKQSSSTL

Assays:
mGluR5 = mGluR5 (UniProt P31424); assay: mGluR5 receptor binding test ([3H]-M-MPEP displacement); details: read-out: mGlu5 Ki; radioligand [3H]-M-MPEP 2 nM; table does not say rat cerebro-cortical membrane or human mGluR5a A18 cells
rat mGluR1 = rat mGluR1 (Rattus norvegicus, UniProt P23385); assay: mGluR1 receptor binding test ([3H]R214127 displacement, rat cerebellar membrane); details: read-out: mGlu1 Ki, radioligand [3H]R214127 3 nM
Experimental: MGluR1 receptor binding testes were performed according to modified method of Lavreysen et al. (Mol. Pharm., 2003, 63, 1082). Based on the high homology between the human and rat mGluR1 receptors, rat cerebellar membrane preparation was used to determine the binding characteristics of reference compounds and novel compounds to the rat mGluR1. As radioligand [3H]R214127 (3 nM) was used and the nonspecific binding was determined in the presence of 1 μM of R214127.
IC-50 values were determined from displacement curves by nonlinear regression analysis and were converted by equation method of Cheng and Prusoff (Biochem. Pharmacol., 1973, 22, 3099) to Ki values.

Compound: O=C(Oc1ccc(F)cc1)c1sc2ncccc2c1-c1ccc(Cl)cc1
- pKi (mGluR5): < 5.82
- pKi (rat mGluR1): < 5.82

Compound: CCOC(=O)CNC(=O)c1sc2ncccc2c1-c1ccc(F)cc1
- pKi (mGluR5): < 5.82
- pKi (rat mGluR1): < 5.82

Compound: O=C(c1ccc(Cl)cc1)c1sc2ncccc2c1-c1ccc(F)cc1
- pKi (mGluR5): < 5.82
- pKi (rat mGluR1): < 5.82

Compound: CN(C(=O)c1sc2ncccc2c1-c1ccc(Cl)cc1)C1CCCCC1
- pKi (mGluR5): < 5.82
- pKi (rat mGluR1): < 5.82

Compound: O=C(NC1C2CC3CC(C2)CC1C3)c1sc2ncccc2c1-c1ccc(Cl)cc1 (stereo not drawn)
- pKi (mGluR5): 5.82 to 6.30
- pKi (rat mGluR1): < 5.82

Compound: O=C(NC12CC3CC(CC(C3)C1)C2)c1sc2ncccc2c1-c1ccc(Cl)cc1
- pKi (mGluR5): < 5.82
- pKi (rat mGluR1): < 5.82

Compound: O=C(CCc1ccc(Br)cc1)c1sc2ncccc2c1-c1ccc(F)cc1
- pKi (mGluR5): 5.82 to 6.30
- pKi (rat mGluR1): > 6.30

Compound: CC(C)(Cc1ccccc1)NC(=O)c1sc2ncccc2c1-c1ccc(Cl)cc1
- pKi (mGluR5): < 5.82
- pKi (rat mGluR1): 5.82 to 6.30

Compound: O=C(CCc1ccc(Cl)cc1)c1sc2ncccc2c1-c1ccc(F)cc1
- pKi (mGluR5): 5.82 to 6.30
- pKi (rat mGluR1): > 6.30
